Measurements as given in ChEMBL document CHEMBL1156928, “Design of novel nicotinamides as potent and selective monoamine oxidase a inhibitors” (Bioorg Med Chem, 2010).

By UniProt entry, the sequences of proteins in these tests, tags left out.
UniProt P21396, whole entry: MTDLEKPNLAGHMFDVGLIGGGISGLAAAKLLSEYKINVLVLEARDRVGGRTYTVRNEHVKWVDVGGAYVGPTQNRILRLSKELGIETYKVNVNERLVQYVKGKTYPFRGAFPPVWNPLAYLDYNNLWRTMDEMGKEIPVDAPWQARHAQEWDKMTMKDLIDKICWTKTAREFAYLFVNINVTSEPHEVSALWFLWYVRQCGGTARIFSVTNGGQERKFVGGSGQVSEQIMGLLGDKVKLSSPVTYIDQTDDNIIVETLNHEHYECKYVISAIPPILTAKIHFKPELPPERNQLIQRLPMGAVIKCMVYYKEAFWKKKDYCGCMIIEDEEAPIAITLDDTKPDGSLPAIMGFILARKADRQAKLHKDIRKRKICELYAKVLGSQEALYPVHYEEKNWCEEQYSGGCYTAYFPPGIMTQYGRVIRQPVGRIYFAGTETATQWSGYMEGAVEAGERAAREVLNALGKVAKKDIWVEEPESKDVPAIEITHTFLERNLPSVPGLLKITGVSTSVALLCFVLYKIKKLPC

Molecular target: Amine oxidase [flavin-containing] A (Rattus norvegicus, UniProt P21396)
Assay: Inhibition of MAOA in Sprague-Dawley rat brain mitochondria using kynuramine substrate by fluorimetry

An IC50 of 5 µM was found for `CC(C)NNC(=O)c1ccncc1` [IPRONIAZID] in this work.
